The record followed here is patent US5496697A, “Methods and apparatus for detecting the effect of cell affecting agents on living cells” (priority 1993, dated 1996).

The assay concerns M1C-2 cells. Put plainly: metabolic rate of M1C-2 cells, lack of β2-adrenergic receptors. Particulars: isoproterenol, FIG. 27.

For `CC(C)NCC(O)c1ccc(O)c(O)c1` (stereo not shown), the “effect on metabolic rate” value was “no effect”.
